These are literature values, as cited in patent publication US20140187505A1, “Cardiac Glycosides to Treat Cystic Fibrosis and Other IL-8 Dependent Disorders” (priority 2002, published 2014).

For this data set the following is noted: octanol/water (20 mM TRIS-HCl, pH 7.4); cited from earlier work.

Turning to Dihydro-digoxin, the “P (partition coefficient in octanol/water system)” value is 25.0 ± 4.7.
